System: IL-3-dependent bone marrow cells
Assay: Apoptosis of IL-3-dependent bone marrow cells deprived of IL-3 (trypan blue exclusion)
Assay type: cell-based, mouse

B1: IL3: recombinant IL-3, positive control in apoptosis assay (protein, UniProt P08700 20-152, looked up)
Interleukin-3: APMTQTTPLKTSWVNCSNMIDEIITHLKQPPLPLLDFNNLNGEDQDILMENNLRRPNLEAFNRAVKSLQNASAIESILKNLLPCLPLATAAPTRHPIHIKDGDWNEFRRKLTFYLKTLENAQAQQTTLSLAIF
- % Dead Cells (24 hr after IL-3 wash, PdG or dG 10 micrograms per milliliter without IL-3, +IL3 = with IL-3): 7.5 ± 12.5 %
- % Dead Cells (40 hr after IL-3 wash, 10 micrograms per milliliter): 6.5 ± 1.5 %
- % Dead Cells (60 hr after IL-3 wash, 10 micrograms per milliliter): 10.3 ± 1.9 %
- % Dead Cells (84 hr after IL-3 wash, 10 micrograms per milliliter): 13.0 ± 4.0 %
